{"sequences": {"note": "Chains of the proteins cited; added tags and fusions are not shown.", "UniProt P03372, whole entry": "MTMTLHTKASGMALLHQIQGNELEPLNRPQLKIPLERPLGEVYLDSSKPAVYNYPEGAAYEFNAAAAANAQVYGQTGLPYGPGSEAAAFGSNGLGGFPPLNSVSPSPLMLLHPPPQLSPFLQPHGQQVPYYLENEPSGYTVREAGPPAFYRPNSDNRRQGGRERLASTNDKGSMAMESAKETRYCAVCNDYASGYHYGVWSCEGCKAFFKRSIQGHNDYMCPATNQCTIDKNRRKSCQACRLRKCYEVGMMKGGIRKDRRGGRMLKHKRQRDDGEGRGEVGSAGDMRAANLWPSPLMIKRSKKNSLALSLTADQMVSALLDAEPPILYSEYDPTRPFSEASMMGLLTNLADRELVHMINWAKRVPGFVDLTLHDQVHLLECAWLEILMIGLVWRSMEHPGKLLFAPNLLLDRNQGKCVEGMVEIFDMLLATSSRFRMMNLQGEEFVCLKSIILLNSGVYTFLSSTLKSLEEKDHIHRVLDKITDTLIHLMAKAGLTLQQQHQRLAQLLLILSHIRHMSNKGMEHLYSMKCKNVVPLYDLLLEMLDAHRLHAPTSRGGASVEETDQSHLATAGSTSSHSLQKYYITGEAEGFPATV"}, "source": "patent US20240217988A1", "about": "“ESTROGEN RECEPTOR ANTAGONIST” (Shenzhen Forward Pharmaceuticals Co., Limited, priority 2021, published 2024)", "molecular_target": "ERα (Homo sapiens (Human), UniProt P03372)", "experiment": "Degradation effect of compound on ERα (ERα DuoSet IC ELISA in MCF-7 cells)", "assay_type": "cell-based", "conditions": "read-out: IC50 value of ERα degradation by compound", "experimental": "In this test example, ERα DuoSet IC ELISA Kit (R&D, DYC5715) was used to detect the degradation effect of the compound on ERα. On the first day of the experiment, human breast cancer cells MCF-7 (the source was as above) were inoculated into a 24-well plate. The culture medium was an MEM culture medium containing 10% of activated-carbon-treated FBS (Tocyto, UT61204), 1% of pyruvic acid and 1% of nonessential amino acid. The inoculation density was 150,000 cells/well. The cells were cultured at 37° C., 5% CO2 for 24 h.\nOn the second day of the experiment, the compound to be tested was diluted in gradient and added to a 24-well plate containing cells. The cells were cultured for 24 h at 37° C., 5% CO2. ERα capture antibody was diluted to 1 μg/ml with PBS (Corning, 21-040-CVR) and added to a 96-well plate at 100 μL/well, and the plate was […] coated overnight at room temperature.\nOn the third day of the experiment, the coated 96-well plate was washed three times with PBS, 300 μL of a blocking solution (R&D, DY995) was added to each well, and the plate was blocked at room temperature for 1 h. The 24-well plate was washed once with PBS, and the residual liquid was sucked off. […] After 15 minutes of development, the reaction was terminated with a stop solution (R&D, DY994), and the light absorption at 450 nm was read."}
{"molecule": "C[C@@H]1Cc2c([nH]c3ccccc23)[C@@H](c2c(F)cc(/C=C/C(=O)O)cc2F)N1CC(C)(C)F", "note": "[AZD9496, reference compound]", "values": [{"measurement": "DC50", "result": 1.38, "unit": "nM"}]}
